Measurements reported in patent US20200023071A1 (INNATE PHARMA, published 2020).

The chains behind the UniProt entries cited, without tags or fusion partners. Residues count along the entry.
UniProt P55899, 24-297 limits assumed, chain 1 of 2: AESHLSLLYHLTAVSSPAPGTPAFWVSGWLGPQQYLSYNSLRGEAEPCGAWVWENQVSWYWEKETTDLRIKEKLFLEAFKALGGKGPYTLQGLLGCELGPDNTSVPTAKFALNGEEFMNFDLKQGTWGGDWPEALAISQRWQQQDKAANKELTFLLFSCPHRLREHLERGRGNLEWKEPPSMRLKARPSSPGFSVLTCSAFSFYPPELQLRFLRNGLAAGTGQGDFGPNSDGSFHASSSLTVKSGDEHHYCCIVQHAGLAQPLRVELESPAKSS
UniProt P08637, 17-208 F176V limits assumed: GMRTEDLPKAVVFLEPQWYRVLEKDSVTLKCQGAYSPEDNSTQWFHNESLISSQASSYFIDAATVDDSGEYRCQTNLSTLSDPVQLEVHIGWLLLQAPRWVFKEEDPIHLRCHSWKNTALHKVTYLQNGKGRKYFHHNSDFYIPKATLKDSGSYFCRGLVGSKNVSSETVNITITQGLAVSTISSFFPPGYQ

Experiments:
recombinant human CD64 = target: T1, recombinant human CD64 (human); assay: SPR (Biacore T100), antibody immobilized on sensor chip, soluble CD64 as analyte, 1:1 kinetic binding model
T1 construct: Cloned, produced and purified, and used as soluble analyte

human FcRn = human FcRn (human, UniProt P55899, in part; P61769, in part); assay: SPR (Biacore T100), antibody immobilized on sensor chip, soluble FcR as analyte, steady state affinity model
[1] = target: recombinant human CD16a(V) (human, UniProt P08637, in part); assay: as above
recombinant human CD32a = target: T2, recombinant human CD32a (human, UniProt P12318 34-217); assay: as above
T2 construct: Soluble analyte
T2 sequence (looked up): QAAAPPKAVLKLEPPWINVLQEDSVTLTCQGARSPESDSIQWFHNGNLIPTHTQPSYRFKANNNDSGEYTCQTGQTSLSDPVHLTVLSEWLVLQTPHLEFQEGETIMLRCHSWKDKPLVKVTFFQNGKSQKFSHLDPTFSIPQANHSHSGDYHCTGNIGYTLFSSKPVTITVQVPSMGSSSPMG

recombinant human CD32b = target: T3, recombinant human CD32b (human, UniProt P31994 43-217); assay: as above
T3 construct: Soluble analyte
T3 sequence (looked up): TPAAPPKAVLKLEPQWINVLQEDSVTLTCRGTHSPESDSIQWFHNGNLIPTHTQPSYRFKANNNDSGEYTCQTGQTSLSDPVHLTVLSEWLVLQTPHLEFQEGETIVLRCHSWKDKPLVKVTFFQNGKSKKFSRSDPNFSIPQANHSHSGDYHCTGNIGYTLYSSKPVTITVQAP

B1: antibody having a human IgG4 domain with S241P substitution (antibody)
chain: ASTKGPSVFPLAPCSRSTSESTAALGCLVKDYFPEPVTVSWNSGALTSGVHTFPAVLQSSGLYSLSSVVTVPSSSLGTKTYTCNVDHKPSNTKVDKRVESKYGPPCPPCPAPEFLGGPSVFLFPPKPKDTLMISRTPEVTCVVVDVSQEDPEVQFNWYVDGVEVHNAKTKPREEQFNSTYRVVSVLTVLHQDWLNGKEYKCKVSNKGLPSSIEKTISKAKGQPREPQVYTLPPSQEEMTKNQVSLTCLVKGFYPSDIAVEWESNGQPENNYKTTPPVLDSDGSFFLYSRLTVDKSRWQEGNVFSCSVMHEALHNHYTQKSLSLSLGK
Recombinant human CD64
  Kd: 96.8 nM
Human FcRn
  Kd: 1180 nM
[1]
  Kd: 8.51 µM
Recombinant human CD32a
  Kd: 3.22 µM
Recombinant human CD32b
  Kd: 2660 nM
